# Laboratory results published in patent US20260158009A1 (GENZYME CORPORATION, priority 2023, published 2026).
# Chains of the proteins cited; added tags and fusions are not shown. Residues count along the entry.
# UniProt Q13546, 1-375 limits assumed: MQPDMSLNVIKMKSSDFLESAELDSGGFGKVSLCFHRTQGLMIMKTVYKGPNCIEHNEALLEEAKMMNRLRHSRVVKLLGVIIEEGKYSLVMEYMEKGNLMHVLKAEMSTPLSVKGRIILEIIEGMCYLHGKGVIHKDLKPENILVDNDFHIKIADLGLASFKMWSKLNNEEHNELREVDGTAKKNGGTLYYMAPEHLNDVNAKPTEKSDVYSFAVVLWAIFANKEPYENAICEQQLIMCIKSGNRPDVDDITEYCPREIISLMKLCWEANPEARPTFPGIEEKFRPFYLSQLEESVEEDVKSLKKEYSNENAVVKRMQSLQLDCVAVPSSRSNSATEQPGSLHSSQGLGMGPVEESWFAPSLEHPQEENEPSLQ
# Tests used:
# [1] = biological target: hRIPK1 (aa 1-375) fusion protein (Homo sapiens, UniProt Q13546); assay: ADP-Glo kinase assay: catalytic activity of RIPK1 (autophosphorylation, conversion of ATP to ADP); conditions: read-out: ADP Glo assay IC50
# Experimental: The catalytic activity of RIPK1 was measured by monitoring the conversion of Adenosine triphosphate (ATP) to Adenosine diphosphate (ADP) due to autophosphorylation using an ADP-Glo kinase kit (Promega, catalog no. V9104).
# In detail, 2 μl recombinantly produced hRIPK1 (aa 1-375) fusion protein (end concentration 3.6 μg/ml) and 2 μl compound (end concentration 33300-1.69 nM; DMSO end concentration 1%) were incubated for 30 minutes at room temperature and then 2 μl ATP (ADP Glo kit, end concentration 50 μM) were added. After another 240 minutes incubation at room temperature, 5 μl Promega ADP-Glo reagent I was added to quench the reaction and deplete unconsumed ATP. After an incubation period of 30 minutes, 10 μl Promega ADP-Glo detection reagent II was added resulting in conversion of ADP to ATP, which generates a light-reaction between luciferase and luciferin. Luminescence was quantified after 30 minutes with a Pherastar FS (BMG LABTECH, Ortenberg).
# For the dose response experiments an IC50 value with 95% confidence interval was calculated using the 4-parameter logistic model according to Ratkowsky and Reedy with constraints for lower and upper asymptotes at 0% and 100%. The adjustment was obtained by nonlinear regression using the Levenberg Marquardt algorithm.
# [2] = system: U937 cells; assay: Cellular assay in U937 cells: activity of RIPK1 inhibitors on TNFα/zVAD.fmk-induced cell death (necroptosis), CellTiter 96 AQueous (MTS) readout; conditions: read-out: U937 cell assay IC50
# Source text: Upon TNF-Receptor I ligation, Ser/Thr kinase RIPK1 is recruited to a transient receptor complex 1. Upon modification of RIPK1 which promotes activation of RIPK1, complex IIb can form, that involves recruitment of RIPK3 and MLKL (mixed lineage-kinase domain-like protein) which then translocates from the cytosol to the plasma membrane to execute cell death (Cai, Z. et al, Nat. Cell Biol. (2014) 16:55-65).
# Cell death was quantified in 96 well plates by determination of the amount of live cell using a CellTiter 96 AQueous reagent (Promega), a calorimetric method to measure the number of live cells by reducing tetrazolium compound [3-(4,5-dimethylthiazol-2-yl)-5-(3-carboxymethoxyphenyl)-2-(4-sulfophenyl)-2H-tetrazolium, inner salt; MTS] into formazan. Absorbance of formazan was read at 490 nm. The inhibitory activity of the test compound was quantified in a concentration response curve (CRC) experiment. […]
# CellTiter 96 Aqueous reagent was mixed (100 μl PMS (phenazine methosulfate) solution/2 ml MTS (3-(4,5-[…])-5-(3-carboxymethoxyphenyl)-2-(4-sulfophenyl)-2H-tetrazolium, inner salt) solution) and 20 μl were added per well. […] (5% CO2 95% rH) optical density was measured at 490 nm on a microplate reader (Tecan Infinite M1000).
# The % inhibition is expressed as percentage of the maximal inhibition value obtained in the absence of TNFα/zVAD.fmc. […]
IC50 [1] [nM],Structure (SMILES),IC50 [2] [nM]
25,Cc1nccn1-c1cc(C[C@H]2CC[C@H](C(=O)N3OCC[C@H]3c3cc(F)cc(C#N)c3)CC2)ncn1,65
18,Cc1nc2cc(C[C@H]3CC[C@H](C(=O)N4OCC[C@H]4c4ccc(F)cc4)CC3)ccn2n1,24
